The entries are a selection whose mix differs from that of the whole data set. Activity calls are given as the source filed them.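 The calls were made as follows: active = activation, meaning protection from cell death, of at least 50% relative to plate controls; inactive = activation below 50%.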
Test: rescue of FADD-deficient Jurkat cells from TNF-alpha death – single concentration, primary screen (AID 463075);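 also: necroptosis triggered by 40 ng/mL TNF-alpha added together with compound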
Conditions: Jurkat FADD-/- TNF necroptosis rescue, ATP luminescence, 24 h; at 10 µM; active compounds read high; 0 = TNF only, 100 = no-TNF cells

SMILES	activation (protection from cell death)
CN(C)C1(CNC(=O)c2ccc(S(C)(=O)=O)cc2)CCCCC1	inactive: 0.683%
O=[N+]([O-])c1cc([N+](=O)[O-])c(Nc2nnnn2CCO)c([N+](=O)[O-])c1	inactive: -2.43%
CCCOc1ccc(NP(C)(=O)Oc2ccc(Cl)cc2)cc1 (stereo not drawn)	inactive: 2.25%
CP(=O)(Nc1ccc(SC(F)(F)F)cc1)Oc1ccccc1 (stereo not drawn)	inactive: 6.96%
COc1ccccc1OP(C)(=O)Nc1c(C)cccc1C (stereo not drawn)	inactive: -1.03%
CN1CCCCC1COC(=O)C1(O)c2ccccc2CCc2ccccc21 (stereo not drawn)	inactive: 3.16%
COc1ccccc1OP(C)(=O)Nc1ccccc1 (stereo not drawn)	inactive: -0.635%
CP(=O)(Nc1ccccc1Br)Oc1ccccc1 (stereo not drawn)	inactive: -0.061%
CP(=S)(Nn1cnnc1)Oc1ccccc1 (stereo not drawn)	inactive: 0.0659%
Cc1cc(C)cc(OP(C)(=O)Nc2ccc(SC(F)(F)F)cc2)c1 (stereo not drawn)	inactive: 2.73%
CP(=O)(NC(=O)Nc1ccccc1)Oc1ccccc1 (stereo not drawn)	inactive: -0.045%
CCc1ccc(OP(C)(=O)N2CCN(c3ccc([N+](=O)[O-])cc3)CC2)cc1 (stereo not drawn)	inactive: -1.54%
CP(=O)(Oc1ccccc1)OC(c1ccccc1)C(F)(F)F (stereo not drawn)	inactive: 20.3%
Cc1cccc(C)c1OP(C)(=O)Nc1ccc(SC(F)(F)F)cc1 (stereo not drawn)	inactive: 1.28%
CP(=O)(Nc1ccc(SC(F)(F)F)cc1)Oc1ccc(Cl)cc1 (stereo not drawn)	inactive: 5.23%
CP(=O)(Nc1ccccn1)Oc1ccc(Cl)cc1 (stereo not drawn)	inactive: 0.76%
CCOP(C)(=S)SCC(=O)NC(C)C(=O)O (stereo not drawn)	inactive: 0.957%
CCOC(=O)c1ccc(NP(C)(=O)Oc2ccc(OC)cc2)cc1 (stereo not drawn)	inactive: 6.06%
CCN(CC)CCCOC(=O)C(O)(c1ccccc1)c1ccccc1	inactive: 0.9%
Cc1cccc(C)c1OP(C)(N)=O (stereo not drawn)	inactive: -1.87%
CC(C)(C)c1ccc(OP(C)(=O)Nc2ccc(SC(F)(F)F)cc2)cc1 (stereo not drawn)	inactive: 3.58%
O=[N+]([O-])c1ccc2c(c1)C=Nc1ccccc1O2	inactive: -12.9%
COc1ccc(OP(C)(=O)Nc2cccc(F)c2)cc1 (stereo not drawn)	inactive: 5.31%
COc1ccccc1OP(C)(=O)Nc1cc(Cl)ccc1C (stereo not drawn)	inactive: 0.961%
Cc1cc(C)cc(OP(C)(N)=O)c1 (stereo not drawn)	inactive: -0.441%
CCOC(=O)c1ccc(NP(C)(=O)Oc2ccccc2)cc1 (stereo not drawn)	inactive: 1.85%
Cc1ccc(NP(C)(=O)Oc2ccccc2)c(C)c1 (stereo not drawn)	inactive: 1.95%
COc1ccccc1OP(C)(=O)Nc1ccc(C)cc1 (stereo not drawn)	inactive: 0.318%
